Patent US7875638B2, “Synthesis of epothilones, intermediates thereto, analogues and uses thereof” (Sloan-Kettering Institute for Cancer Research, priority 2002, dated 2011)

Tested on: human xenografts in nude mice, such as MX-1
Details: mouse, in vivo

C/C1=C/CC(/C(C)=C/c2csc(C)n2)OC(=O)C[C@H](O)C(C)(C)C(=O)[C@H](C)[C@@H](O)[C@@H](C)CCC1 (stereo partly shown) [Compound 1, 12,13-desoxyepothilone B, reference compound]
Therapeutic dose regimen for Q2D 6 hr-iv infusion: 25 to 30 mg/kg
